Measured values reported in EP4168403B1 (priority 2020, dated 2021).

Protein sequences, listed by entry. Tags and fused reporters are not part of them. Residues count along the entry.
UniProt P05067, 672-713 limits assumed: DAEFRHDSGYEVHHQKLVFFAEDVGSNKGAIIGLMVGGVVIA
UniProt P21397, whole entry: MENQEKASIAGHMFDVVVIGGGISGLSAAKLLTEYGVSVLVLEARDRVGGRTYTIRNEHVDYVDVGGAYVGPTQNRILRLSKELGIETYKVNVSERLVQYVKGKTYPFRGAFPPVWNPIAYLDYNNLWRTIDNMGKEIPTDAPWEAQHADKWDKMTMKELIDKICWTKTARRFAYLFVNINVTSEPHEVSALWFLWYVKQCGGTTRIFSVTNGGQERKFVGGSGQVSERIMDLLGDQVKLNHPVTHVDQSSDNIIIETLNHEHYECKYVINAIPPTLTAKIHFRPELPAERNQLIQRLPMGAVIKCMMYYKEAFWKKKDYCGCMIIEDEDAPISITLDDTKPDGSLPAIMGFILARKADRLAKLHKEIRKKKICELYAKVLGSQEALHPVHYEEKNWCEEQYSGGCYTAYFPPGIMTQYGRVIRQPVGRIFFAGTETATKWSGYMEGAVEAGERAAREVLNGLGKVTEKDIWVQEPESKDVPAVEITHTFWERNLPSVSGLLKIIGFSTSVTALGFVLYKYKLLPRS
UniProt P27338, whole entry: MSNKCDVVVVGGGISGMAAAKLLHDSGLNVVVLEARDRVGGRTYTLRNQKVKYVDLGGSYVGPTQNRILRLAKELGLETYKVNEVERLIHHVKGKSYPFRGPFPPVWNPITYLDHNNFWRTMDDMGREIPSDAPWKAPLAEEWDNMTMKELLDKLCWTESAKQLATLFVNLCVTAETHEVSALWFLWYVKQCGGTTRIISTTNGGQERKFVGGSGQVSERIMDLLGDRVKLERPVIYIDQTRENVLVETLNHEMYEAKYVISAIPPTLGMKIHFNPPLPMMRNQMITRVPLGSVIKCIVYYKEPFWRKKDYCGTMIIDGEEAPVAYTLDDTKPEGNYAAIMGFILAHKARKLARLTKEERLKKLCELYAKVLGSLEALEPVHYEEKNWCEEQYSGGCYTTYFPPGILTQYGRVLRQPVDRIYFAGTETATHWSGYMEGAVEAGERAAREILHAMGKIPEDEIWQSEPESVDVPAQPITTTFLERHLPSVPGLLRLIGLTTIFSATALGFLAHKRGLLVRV
UniProt P49841, whole entry: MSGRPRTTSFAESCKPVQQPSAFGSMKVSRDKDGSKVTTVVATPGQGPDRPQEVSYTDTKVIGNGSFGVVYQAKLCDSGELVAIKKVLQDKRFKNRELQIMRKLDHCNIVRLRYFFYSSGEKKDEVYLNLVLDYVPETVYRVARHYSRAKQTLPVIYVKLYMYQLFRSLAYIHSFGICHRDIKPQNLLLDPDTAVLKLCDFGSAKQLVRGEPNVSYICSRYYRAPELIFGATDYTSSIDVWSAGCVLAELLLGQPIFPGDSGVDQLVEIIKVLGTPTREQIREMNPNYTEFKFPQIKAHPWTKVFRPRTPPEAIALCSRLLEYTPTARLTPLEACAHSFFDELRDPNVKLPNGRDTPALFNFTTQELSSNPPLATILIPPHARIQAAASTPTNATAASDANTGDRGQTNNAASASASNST
UniProt P10636, 623-653 limits assumed: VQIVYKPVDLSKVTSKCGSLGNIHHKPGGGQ
UniProt P22303, 32-617 isoform 2 limits assumed: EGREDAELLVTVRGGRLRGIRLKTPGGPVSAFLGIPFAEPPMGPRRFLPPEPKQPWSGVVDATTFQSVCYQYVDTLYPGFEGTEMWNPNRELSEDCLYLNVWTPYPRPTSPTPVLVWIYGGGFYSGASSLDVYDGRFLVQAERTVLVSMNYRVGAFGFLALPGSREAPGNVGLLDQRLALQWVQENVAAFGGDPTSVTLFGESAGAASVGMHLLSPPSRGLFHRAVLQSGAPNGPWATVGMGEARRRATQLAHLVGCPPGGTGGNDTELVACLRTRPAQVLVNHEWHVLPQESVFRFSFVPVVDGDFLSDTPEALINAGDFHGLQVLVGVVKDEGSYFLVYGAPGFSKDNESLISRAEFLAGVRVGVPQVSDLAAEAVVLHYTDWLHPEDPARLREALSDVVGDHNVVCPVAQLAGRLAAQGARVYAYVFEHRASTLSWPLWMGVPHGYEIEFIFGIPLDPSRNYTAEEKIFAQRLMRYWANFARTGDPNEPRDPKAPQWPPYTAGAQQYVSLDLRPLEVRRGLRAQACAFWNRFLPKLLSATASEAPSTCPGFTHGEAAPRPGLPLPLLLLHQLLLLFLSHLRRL

Legend:
[1] = tested on: voltage-gated Ca^2+ channels (VGCC); experiment: Calcium channel antagonist assay (K+-evoked cytosolic Ca2+, Fluo-4); format: cell-based; details: read-out: IC50 (µM) Calcium channels blockade, SH-SY5Y cells, K+ 70 mM, mean ± SEM
Method: The cytosolic Ca^2+ has been measured in SH-SY5Y cells. SH-SY5Y cells were maintained similarly to what was previously described^30. Free cytosolic Ca^2+ was measured using the fluorescent Ca^2+ indicator Fluo-4/AM (Fluo-4 acetomethoxyester). SH-SY5Y cells were seeded onto 96-well black plates at a density of 10^5 cells per well, achieving confluence after 48 h. Cells were washed with Krebs-Hepes solution (KH, in mM: 144 NaCl, 5.9 KCl, 1.2 MgCl2, 2 CaCl2, 11 D-glucose, 10 HEPES, pH 7.4). Cells were loaded with 10 µM Fluo-4/AM and 0.2% pluronic acid in KH and incubated for 45 min at 37 °C in the dark. Then, cells were washed twice with KH to remove the excess of probe. […] To normalize Fluo-4 signals, Triton X-100 (5%) and 1 M MnCl2 were applied to register both maximal and minimal fluorescence, respectively. The experiments were analyzed at excitation and emission wavelengths of 485 and 520 nm, respectively, and fluorescence was measured in a fluorescence microplate reader (FLUOstar Optima, BMG, Germany). Data were calculated as a percentage of Fmax - Fmin.
The blocking effect of the depolarization-induced Ca^2+ uptake was investigated in SH-SY5Y neuroblastoma cells stimulated with an extracellular concentration of K+ 70 mM, which induces the cell Ca^2+ levels elevation by opening voltage-gated Ca^2+ channels (VGCC), monitored with the Ca^2+-sensitive fluorescent dye Fluo-4. […]

Aβ1-42 = Aβ1-42 (Homo sapiens, UniProt P05067); experiment: Inhibition of Aβ1-42 self-aggregation (ThT fluorescence); format: biochemical; details: [Inhibitor]=[Aβ1-42]=50 µM, mean ± SEM
Method: 1,1,1,3,3,3-Hexafluoro-2-propanol (HFIP) pre-treated Aβ1-42 samples (Bachem AG, Switzerland) were resolubilized with a MeCN/Na2CO3/NaOH (48.4/48.4/3.2) mixture to have a stable stock solution ([Aβ1-42]=500 µM)^35. Experiments were performed by incubating the peptide in 10 mM phosphate buffer (pH=8.0) containing 10 mM NaCl, at 30 °C for 24 h (final Aβ concentration=50 µM with and without inhibitor (50 µM). The inhibitor was dissolved in methanol and diluted in the assay buffer. Blanks containing inhibitor and ThT were also prepared and evaluated to account for quenching and fluorescence properties. To quantify amyloid fibril formation, the ThT fluorescence method was used^36, 37. After incubation, samples were diluted to a final volume of 2.0 mL with […] glycine-NaOH buffer (pH= 8.5) containing 1.5 µM ThT. A 300-seconds-time scan of fluorescence intensity was carried out (λexc=446 nm; λem=490 nm), and values at plateau were averaged after subtracting the background fluorescence of 1.5 µM ThT solution. The fluorescence intensities were compared and the % inhibition was calculated.
The inhibitory activity of compounds BIGI-3e, BIGI-3h and BIGI-3k against the spontaneous aggregation of Aβ1-42 was determined in vitro using a thioflavin T (ThT)-based fluorometric assay^35. […].

[2] = Prediction of blood-brain barrier penetration (PAMPA); format: in vitro ADME; details: PBS pH 7.4, 50 µM in donor well
Method: To predict passive blood-brain penetration of novel compounds modification of the parallel artificial membrane permeation (PAMPA) assay has been used based on reported protocol^38, 39. The filter membrane of the donor plate was coated with PBL (Polar Brain Lipid, Avanti, USA) in dodecane (4 µl of 20 mg/ml PBL in dodecane) and the acceptor well was filled with 300 µl of PBS pH 7.4 buffer (VD). Tested compounds were dissolved first in DMSO (0.5% (V/V) final) and that diluted with PBS pH 7.4 to reach the final concentration 50 µM in the donor well. 300 µl of the donor solution was added to the donor wells (VA) and the donor filter plate was carefully put on the acceptor plate so that coated membrane was "in touch" with both donor solution and acceptor buffer. Test compound diffused from the donor well through the lipid membrane (Area=0.28cm^2) to the acceptor well. The concentration of the drug in both donor and the acceptor wells was assessed after 3, 4, 5 and 6 hours of incubation in quadruplicate using the UV plate reader Synergy HT (Biotek, USA) at the maximum absorption wavelength and the standard curve for each compound. […]

MAO-A = MAO-A (Homo sapiens, UniProt P21397); experiment: Monoamine oxidase inhibition (kynuramine), MAO-A; format: biochemical; details: 42 nM MAO-A, kynuramine 50 µM, mean ± SEM; for IC50: read-out: MAO A (IC50 µM)
MAO-B = MAO-B (Homo sapiens, UniProt P27338); experiment: Monoamine oxidase inhibition (kynuramine), MAO-B; format: biochemical; details: read-out: MAO B (IC50 µM), 200 nM MAO-B, kynuramine 50 µM, mean ± SEM
Human recombinant GSK-3β = Human recombinant GSK-3β (Homo sapiens, UniProt P49841); experiment: GSK-3β inhibition in vitro assay (Kinase-Glo luminescence); format: biochemical; details: read-out: GSK-3β inhibition (IC50 µM), ATP 1 µM, GSM substrate 25 µM, mean ± SEM
Method: Human recombinant GSK-3β, prephosphorylated polypeptide substrate and white 96-well plates were purchased from Millipore (Millipore Iberica S.A.U.). Kinase-Glo Luminescent Kinase Assay was obtained from Promega (Promega Biotech Iberica, SL). Adenosinetriphosphate (ATP) and all other reagents were from Sigma-Aldrich. Assay buffer contained 50 mM 4-(2-hydroxyethyl)-1- piperazineethanesulfonic acid (HEPES) (pH 7.5), 1 mM ethylenediaminetetraacetic acid (EDTA), 1 mM ethylene glycol tetraacetic acid (EGTA), and 15 mM magnesium acetate. The in solution experiments for GSK-3β inhibition analysis were performed by following the method developed by Baki et al^42. In a typical assay, 10 µL of test compound (dissolved in DMSO at 1 mM concentration and diluted in advance in assay buffer to the desired concentration) and 10 µL (20 ng) of enzyme were added to each well in presence of 20 µL of assay buffer containing GSM substrate and ATP in order to reach a 25 µM and 1 µM final concentration respectively. […] After a 30 min incubation time at 30 °C, the enzymatic reaction was stopped by adding 40 µL of Kinase-Glo reagent. Glow-type luminescence was recorded after 10 min using a VictorX 3 PerkinElmer plate reader. […]. The linear regression parameters were determined and the IC50 extrapolated (GraphPad Prism 4.0, GraphPad Software Inc.).

Tau(306-336) peptide = Tau(306-336) peptide (Homo sapiens, UniProt P10636); details: Tau(306-336) 50 µM, inhibitor 50 µM (1:1 ratio), mean ± SEM
[3] = molecular target: Human red-blood cell acetylcholinesterase (hAChE; EC 3.1.1.7) (Homo sapiens, UniProt P22303); details: read-out: AChE (IC50 µM), pH 7.4, 37 °C, mean ± SEM

CCOC(=O)C1=C(C)N(CCC2CCN(Cc3ccccc3)CC2)C(=O)NC1c1coc2c(Cl)cc(Cl)cc2c1=O (single isomer, unassigned) [BIGI-3h ISO1 (+)]
IC50 [1]: 5 µM
% inhibition Aβ1-42 aggregation (Aβ1-42): 66.5 ± 0.9%
Pe ± SEM (*10^-6 cm s^-1) [2]: 6.7 ± 0.4 *10^-6 cm s^-1
MAO A (IC50 µM) (MAO-A): modest inhibition
IC50 (MAO-A): 75.6 µM
IC50 (MAO-B): 11.2 µM
IC50 (Human recombinant GSK-3β): 10.6 µM
Inhibition of T (306-336) peptide self - aggregation (%) (Tau(306-336) peptide): 78.3 ± 3.0%
IC50 [3]: 0.09 µM

CCOC(=O)C1=C(C)N(CCC2CCN(Cc3ccccc3)CC2)C(=O)NC1c1coc2c(Cl)cc(Cl)cc2c1=O (single isomer, unassigned) [BIGI-3h ISO2 (-)]
IC50 [1]: 1.6 µM
% inhibition Aβ1-42 aggregation (Aβ1-42): 63.5 ± 0.2%
MAO A (IC50 µM) (MAO-A): modest inhibition
IC50 (MAO-A): 195 µM
IC50 (MAO-B): 12.3 µM
IC50 (MAO-B; listed as BIGI-3h ISO2): 12.3 µM
IC50 (Human recombinant GSK-3β): 24.3 µM
IC50 (Human recombinant GSK-3β; listed as BIGI-3h ISO2): 24.3 µM
Inhibition of T (306-336) peptide self - aggregation (%) (Tau(306-336) peptide): 75.3 ± 1.6%
IC50 [3]: 0.07 µM

Where two headings read alike, the source gives them in different places.
